The results in this text go back to patent US20040176393A1, “Statin-MMP inhibitor combinations” (priority 1998, published 2004).

One test addresses T1, MMP-2 (Gelatinase A) (Homo sapiens, UniProt P08253).
T1 sequence (P08253 110-660): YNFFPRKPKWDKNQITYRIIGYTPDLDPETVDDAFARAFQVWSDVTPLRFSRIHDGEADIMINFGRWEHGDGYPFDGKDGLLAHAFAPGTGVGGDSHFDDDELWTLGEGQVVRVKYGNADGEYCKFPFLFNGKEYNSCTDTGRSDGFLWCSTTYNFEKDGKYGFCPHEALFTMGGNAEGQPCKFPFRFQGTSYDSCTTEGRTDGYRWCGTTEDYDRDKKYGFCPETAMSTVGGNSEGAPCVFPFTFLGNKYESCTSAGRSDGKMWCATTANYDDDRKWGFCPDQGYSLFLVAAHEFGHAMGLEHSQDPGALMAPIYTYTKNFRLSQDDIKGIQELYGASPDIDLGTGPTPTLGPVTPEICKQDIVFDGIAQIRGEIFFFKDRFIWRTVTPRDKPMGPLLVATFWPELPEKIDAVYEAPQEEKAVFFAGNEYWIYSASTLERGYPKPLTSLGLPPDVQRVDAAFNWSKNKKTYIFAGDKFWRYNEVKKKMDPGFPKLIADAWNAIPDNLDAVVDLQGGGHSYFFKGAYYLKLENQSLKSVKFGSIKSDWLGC
In words: thiopeptolide substrate hydrolysis assay, MMP-2. It is filed as biochemical. Conditions: inhibition of hydrolytic activity of the enzyme, read-out: IC50 MMP2.

In test [1] the target is T2, MMP-1 (interstitial collagenase) (Homo sapiens, UniProt P03956).
T2 sequence (P03956 100-469): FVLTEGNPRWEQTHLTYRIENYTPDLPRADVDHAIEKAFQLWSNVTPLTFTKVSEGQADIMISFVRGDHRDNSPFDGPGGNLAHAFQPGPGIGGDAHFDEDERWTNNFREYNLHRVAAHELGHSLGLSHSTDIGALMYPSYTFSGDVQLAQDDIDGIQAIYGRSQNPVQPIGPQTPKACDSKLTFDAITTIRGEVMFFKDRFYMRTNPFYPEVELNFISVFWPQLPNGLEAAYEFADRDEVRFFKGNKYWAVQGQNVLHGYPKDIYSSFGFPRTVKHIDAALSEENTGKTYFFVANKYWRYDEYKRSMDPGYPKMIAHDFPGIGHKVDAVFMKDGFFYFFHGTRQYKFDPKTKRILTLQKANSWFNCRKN
Description: thiopeptolide substrate hydrolysis assay, MMP-1. It counts as biochemical. Conditions: inhibition of hydrolytic activity of the enzyme, read-out: IC50 MMP1.

In the case of `CC(C)[C@H](NS(=O)(=O)c1ccc(-c2ccc([N+](=O)[O-])cc2)cc1)C(=O)O` [(S)-3-Methyl-2-(4′-nitro-biphenyl-4-sulfonylamino)-butyric acid], at MMP-2 (Gelatinase A), the IC50 was 13 nM.

Consider `CC(C)[C@H](NS(=O)(=O)c1ccc(-c2ccc(N)cc2)cc1)C(=O)O` [(S)-2-(4′-Amino-biphenyl-4-sulfonylamino)-3-methyl-butyric acid], for which the IC50 at MMP-2 (Gelatinase A) was 44 nM.

Turning to `COc1ccc(S(=O)(=O)N(Cc2cccnc2)[C@@H](C(=O)NO)C(C)C)cc1` [CGS 27023A], the IC50 in test [1] amounted to 33 nM.

As for `CC(C)[C@H](NS(=O)(=O)c1ccc(-c2ccc(Br)cc2)cc1)C(=O)O` [(S)-2-(4′-Bromo-biphenyl-4-sulfonylamino)-3-methyl-butyric acid], the IC50 at MMP-2 (Gelatinase A) came to 25 nM.

For orientation: IC50 means the concentration that inhibits the measured activity by half.
